From PMC12274739, “Differential substrate degradation by super-degron: EGFP in wild-type mouse cells, PD-1 requires CRBN humanization” (iScience, 2025)

By UniProt entry, the sequences of proteins in these tests, tags left out.
UniProt Q8C7D2, whole entry, looked up, stated change not applied: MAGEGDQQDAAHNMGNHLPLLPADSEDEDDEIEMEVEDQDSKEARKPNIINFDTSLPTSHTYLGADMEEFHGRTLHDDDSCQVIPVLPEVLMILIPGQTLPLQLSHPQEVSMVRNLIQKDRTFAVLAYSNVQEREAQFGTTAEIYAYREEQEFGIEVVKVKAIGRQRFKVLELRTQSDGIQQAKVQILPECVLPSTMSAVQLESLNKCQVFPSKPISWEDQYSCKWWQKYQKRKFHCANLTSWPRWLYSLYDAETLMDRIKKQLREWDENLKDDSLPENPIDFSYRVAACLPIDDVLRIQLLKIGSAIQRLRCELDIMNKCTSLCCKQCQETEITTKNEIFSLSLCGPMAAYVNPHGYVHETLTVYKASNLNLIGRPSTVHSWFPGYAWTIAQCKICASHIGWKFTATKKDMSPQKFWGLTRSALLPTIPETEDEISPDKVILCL

Biological target: EGFP-ZFP91 (UniProt P42212+Q8C7D2, F64L/H231L/INS1V/S65T)
Assay: Degradation of EGFP-ZFP91 in mESCs by thalidomide analogs (Figure 5)
Format: cell-based, mouse
Details: read-out: DC50, EGFP-ZFP91; CrbnI391V/I391V mESCs, stable, Figure 5E

Nc1cccc2c1C(=O)N(C1CCC(=O)NC1=O)C2=O (stereo not shown) [POM, pomalidomide]
DC50: 8.88 nM
